Measurements from US11408900B2, “Secreted P-glycoprotein is a non-invasive biomarker of chronic rhinosinusitis” (Massachusetts Eye and Ear Infirmary, priority 2016, dated 2022).

Amino acid sequences for entries named in this document (tags omitted).
UniProt P08183, whole entry: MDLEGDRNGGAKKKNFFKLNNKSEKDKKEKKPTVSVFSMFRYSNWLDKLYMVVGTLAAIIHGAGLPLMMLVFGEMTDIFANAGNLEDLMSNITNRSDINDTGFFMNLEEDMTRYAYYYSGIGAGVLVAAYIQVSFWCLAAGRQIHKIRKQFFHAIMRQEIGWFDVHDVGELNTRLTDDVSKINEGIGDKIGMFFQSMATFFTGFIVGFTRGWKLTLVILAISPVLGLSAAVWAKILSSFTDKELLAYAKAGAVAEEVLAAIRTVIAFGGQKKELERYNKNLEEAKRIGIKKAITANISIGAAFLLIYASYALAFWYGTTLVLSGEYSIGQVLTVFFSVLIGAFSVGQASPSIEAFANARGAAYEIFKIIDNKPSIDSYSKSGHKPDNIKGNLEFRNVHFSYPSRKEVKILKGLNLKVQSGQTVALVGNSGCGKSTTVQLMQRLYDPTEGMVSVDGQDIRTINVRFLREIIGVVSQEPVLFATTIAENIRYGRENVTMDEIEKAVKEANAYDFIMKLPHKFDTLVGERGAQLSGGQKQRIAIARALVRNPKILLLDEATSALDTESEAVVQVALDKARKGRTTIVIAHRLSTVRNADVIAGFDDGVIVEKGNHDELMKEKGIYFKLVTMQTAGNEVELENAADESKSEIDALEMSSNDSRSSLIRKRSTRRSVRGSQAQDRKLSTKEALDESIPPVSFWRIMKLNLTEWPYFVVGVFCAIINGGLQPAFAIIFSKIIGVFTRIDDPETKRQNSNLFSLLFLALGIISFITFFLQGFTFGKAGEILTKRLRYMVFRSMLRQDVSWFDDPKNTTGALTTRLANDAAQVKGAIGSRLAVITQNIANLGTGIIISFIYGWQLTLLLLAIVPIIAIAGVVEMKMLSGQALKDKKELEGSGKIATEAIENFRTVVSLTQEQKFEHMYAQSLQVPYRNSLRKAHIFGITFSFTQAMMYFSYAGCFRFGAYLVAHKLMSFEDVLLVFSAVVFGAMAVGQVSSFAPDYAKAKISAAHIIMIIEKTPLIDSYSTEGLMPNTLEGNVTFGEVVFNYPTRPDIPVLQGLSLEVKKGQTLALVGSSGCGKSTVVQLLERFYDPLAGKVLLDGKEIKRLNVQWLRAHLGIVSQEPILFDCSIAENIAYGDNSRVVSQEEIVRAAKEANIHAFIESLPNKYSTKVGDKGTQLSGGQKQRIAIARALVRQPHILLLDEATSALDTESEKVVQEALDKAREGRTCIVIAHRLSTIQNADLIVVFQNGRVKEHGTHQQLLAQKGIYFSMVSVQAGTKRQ

What was measured:
P-gp [1] = target: T1, P-gp (Homo sapiens, UniProt P08183); test: Calcein AM assay of exosome mediated transfer of functional P-gp; type: cell-based; parameters: endogenous in cells; host or cells: Primary human sinonasal epithelial cell cultures (HSNECCs) from control and CRSwNP patients, plus P-gp carried by autologous nasal-mucus exosomes; conditions: 0.625 μM Zosuquidar together with exosomes
Description: A Calcein Acetoxymethylester (AM) assay[22] was performed on the HSNEC cultures following dosing with autologous purified mucus derived exosomes to quantify the relative acquisition of functional P-gp activity. HSNECCs were exposed to BEGM containing exosomes (1.25×10^9 exosomes/mL) or exosomes along with 0.625 μM of the 3rd generation P-gp inhibitor Zosuquidar 3HCl (Medkoo, Chapel Hill, N.C.). Pre-warmed Calcein AM (Life Technologies) was added to each well for a final concentration of 2.5 μM as previously described. After 15 minutes, each well was washed 3× with cold phosphate buffered saline and the wells were imaged in triplicate. Fluorescence was quantified using the corrected total cell fluorescence method as previously described by McCloy et al.. A reduction in calcein fluorescence corresponds to a gain in P-gp function while an increase in fluorescence corresponds to successful inhibition.

P-gp [2] = target: T1, P-gp; conditions: cited from earlier work

- effect on exosome mediated gain of P-gp function (P-gp [1]): abrogated
SMILES: Cl.Cl.Cl.O[C@@H](COc1cccc2ncccc12)CN1CCN([C@@H]2c3ccccc3[C@@H]3[C@H](c4ccccc42)C3(F)F)CC1 [Zosuquidar, (2R)-1-{4-[(1aR,6r,10bS)-1,1-Difluoro-1,1a,6,10b-tetrahydrodibenzo[a,e]cyclopropa[c]cyclohepten-6-yl]piperazin-1-yl}-3-(quinolin-5-yloxy)propan-2-ol,trihydrochloride]
- potency relative to the first and second-generation inhibitors (P-gp [2]): about 10 fold
